# Test results as given in ChEMBL document CHEMBL4346760, “Alkynamide phthalazinones as a new class of TbrPDEB1 inhibitors (Part 2)” (Bioorg Med Chem, 2019).
# Assay: Selectivity index, ratio of pKi for Trypanosoma brucei PDEB1 to pKi for human PDE4B using cAMP as substrate incubated for 20 mins by PDELight HTS cAMP phosphodiesterase Kit based luminometry
row,Ratio pKi,SMILES
1,-0.3,COc1ccc(C2=NN(C3CCCCCC3)C(=O)[C@@H]3CC=CC[C@H]23)cc1C#CC(N)=O
2,0.7,COc1ccc(C2=NN(C(C)C)C(=O)[C@@H]3CC=CC[C@H]23)cc1C#CC(=O)NCc1cnn(C)c1
3,6,COc1ccc(C2=NN(C(C)C)C(=O)[C@@H]3CC=CC[C@H]23)cc1C#CC(=O)NCc1ccncc1 (relative stereo)
4,0.5,COc1ccc(C2=NN(C(C)C)C(=O)[C@@H]3CC=CC[C@H]23)cc1C#CC(=O)NCC1CCCO1 (relative stereo)
